In this test the target is Bovine pancreatic trypsin (Bos taurus, UniProt P00760). To be noted: second series analogs.

Protein sequences, listed by entry. Tags and fused reporters are not part of them. Residues count along the entry.
UniProt P00760, 24-246 limits assumed: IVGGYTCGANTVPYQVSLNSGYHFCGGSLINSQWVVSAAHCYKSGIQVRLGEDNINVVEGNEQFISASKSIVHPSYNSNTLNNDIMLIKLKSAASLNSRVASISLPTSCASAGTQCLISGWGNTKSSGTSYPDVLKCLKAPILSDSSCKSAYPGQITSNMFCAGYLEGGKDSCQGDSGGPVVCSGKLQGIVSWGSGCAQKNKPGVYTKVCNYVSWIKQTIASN

As to `Cc1cc(O)c2c(c1)C(=O)c1cc(O)cc(O)c1C2=O`, the “Trypsin Mechanism” value was “Uncompetitive”. Also, the Ki (read-out: Trypsin Ki2) is 5 µM.

For the origin of these results see patent publication US8778876B2, “Small-molecule inhibitors of Dengue and West Nile virus proteases” (The Board of Regents of the University of Texas System, priority 2011, dated 2014).
